For data set [1], the system named is CYP3A. Kind of data set: Inhibition of CYP3A-mediated midazolam 1′-hydroxylation in human liver microsomes. The data set is classed as in vitro ADME. How it is done: (§1) The mass spectrometer was run in the positive ion mode. Nitrogen as the drying gas was supplied at a flow of 10 L/minutes and at a temperature of 350°C.
In data set [2] the test system is CYP3A. The data set can be described thus: Inhibition of CYP3A-mediated midazolam 4′-hydroxylation in human liver microsomes. It is filed as in vitro ADME. How it is done:
as §1
(Liver microsomes are a subcellular fraction often used to study metabolism.)

Protein sequences, listed by entry. Tags and fused reporters are not part of them.
UniProt P10635, whole entry: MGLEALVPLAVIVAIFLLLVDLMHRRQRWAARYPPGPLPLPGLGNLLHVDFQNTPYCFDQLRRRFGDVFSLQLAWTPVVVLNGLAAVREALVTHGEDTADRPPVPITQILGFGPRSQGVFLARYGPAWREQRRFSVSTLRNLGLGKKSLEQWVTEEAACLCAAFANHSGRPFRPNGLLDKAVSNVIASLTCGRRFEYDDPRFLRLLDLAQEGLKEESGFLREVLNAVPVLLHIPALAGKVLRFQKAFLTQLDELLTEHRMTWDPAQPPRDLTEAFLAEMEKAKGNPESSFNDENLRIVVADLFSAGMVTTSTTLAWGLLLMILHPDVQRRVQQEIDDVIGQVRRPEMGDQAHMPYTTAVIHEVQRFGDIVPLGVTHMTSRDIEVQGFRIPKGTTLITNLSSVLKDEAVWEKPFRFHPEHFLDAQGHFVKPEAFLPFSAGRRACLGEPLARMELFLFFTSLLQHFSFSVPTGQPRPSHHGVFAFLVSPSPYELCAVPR

For a further data set, the target named is CYP2D6 (Homo sapiens, UniProt P10635). The note with it: cited from earlier work.
For data set [3] the following is noted: reported therapeutic concentrations; ref Kirchherr and Kühn-Velten [18]; cited from earlier work.
Where [4] appears, read: relative to the mean of reported therapeutic concentrations.

`Cc1cc2c(s1)Nc1ccccc1N=C2N1CCN(C)CC1` [Olanzapine]: the Ki at 30 min in the data set on CYP3A [1] (human, human liver microsomes, pH 7.5, probe midazolam (1′-hydroxylation), 10 μM, estimate obtained from IC50 as described in [17] (IC50-to-Ki tool), read-out: K i, CYP3A (1-hydroxylation)) is 7.3 µM; in the data set with CYP3A [2] (human, human liver microsomes, pH 7.5, probe midazolam (4′-hydroxylation), 10 μM, estimate obtained from IC50 as described in [17] (IC50-to-Ki tool), read-out: K i, CYP3A (4′-hydroxylation)) it was 21.1 µM. Besides, the inhibition – broadly, the share of the control response that was lost under treatment – at 30 min with CYP3A [1] (pH 7.5, probe midazolam (1′-hydroxylation), 10 μM, human liver microsomes, inhibitor 0.05 to 50 μM, read-out: I max (maximum inhibition), CYP3A (1-hydroxylation)) was found to be 77.1%; with CYP3A [2] (pH 7.5, probe midazolam (4′-hydroxylation), 10 μM, human liver microsomes, inhibitor 0.05 to 50 μM, read-out: I max (maximum inhibition), CYP3A (4′-hydroxylation)) it was 58.8%. Further, the IC50 – broadly, the midpoint of a concentration-inhibition curve – at 30 min with CYP3A [1] (pH 7.5, probe midazolam (1′-hydroxylation), human liver microsomes, 10 μM midazolam, 30 min 37°C) stood at 14.7 µM; in the data set with CYP3A [2] (pH 7.5, probe midazolam (4′-hydroxylation), human liver microsomes, 10 μM midazolam, 30 min 37°C), 42.2 µM. For the same molecule, the “Inhibitory potency ([inhibitor]/K i), CYP3A (1-hydroxylation)” value in the data set on CYP3A [1] (setting [4]) was found to be 0.0212. Besides, the “Inhibitory potency ([inhibitor]/K i), CYP3A (4′-hydroxylation)” value in the data set on CYP3A [2] (setting [4]) was found to be 0.0073.

On to `Cc1nc2n(c(=O)c1CCN1CCC(c3noc4cc(F)ccc34)CC1)CCCC2` [Risperidone], for which, on CYP2D6, the “Inhibition of CYP2D6 (in words, literature)” value is “inhibitory effect”. Moreover, the Therapeutic range in data set [3] was 0.04 to 0.15 µM.
